Data from PMC9146215, “Design of D-Amino Acids SARS-CoV-2 Main Protease Inhibitors Using the Cationic Peptide from Rattlesnake Venom as a Scaffold” (Pharmaceuticals, 2022).

Sequences of proteins named here, by UniProt entry; tags and fusion partners are left off. Residues count along the entry.
UniProt P00791, 60-385: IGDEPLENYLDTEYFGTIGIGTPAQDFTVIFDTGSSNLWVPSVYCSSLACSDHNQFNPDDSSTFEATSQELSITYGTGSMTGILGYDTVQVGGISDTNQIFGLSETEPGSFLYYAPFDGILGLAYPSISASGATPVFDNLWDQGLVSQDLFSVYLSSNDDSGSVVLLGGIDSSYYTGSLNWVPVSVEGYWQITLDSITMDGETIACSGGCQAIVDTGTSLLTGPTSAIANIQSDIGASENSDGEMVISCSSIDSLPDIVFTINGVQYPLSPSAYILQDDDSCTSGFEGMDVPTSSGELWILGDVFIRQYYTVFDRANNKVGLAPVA

Assays:
pepsin = pepsin (Sus scrofa, UniProt P00791); assay: L- and D-peptide stability against pepsin hydrolysis (simulated gastric fluid); format: in vitro ADME; settings: simulated gastric fluid: 3.2 mg/mL pepsin, pH 1.0, 37 °C, 4 and 8 h; RP-HPLC
Method: (§1) As protein hydrolysis is initiated by pepsin, we have performed a hydrolysis experiment simulating gastric fluid for both selected L- and D-peptides. After incubation over 4 and 8 h, the sample was analysed using RP-HPLC (Supplementary Figure S8).
(§2) The preparation of the pepsin solution was performed as described before. The experiment solution contains 2 mg/mL NaCl, 3.2 mg/mL pepsin, and 80 mM HCL at a pH 1.0. This solution simulated gastric fluid. […] Samples were taken after 0 h, 4 h, and 8 h. The samples were analysed by reversed-phase high-performance liquid chromatography (RP-HPLC). The RP-HPLC system (Agilent Technologies, Santa Clara, CA, USA; 1200 series) consisted of a manual injector, quaternary pump, a thermostatted column compartment, and a variable wavelength detector. Chromatography was performed with a C18 column (Agilent Technologies, Santa Clara, CA, USA; ZORBAX 300SB-C18 5 µm, 4.6 × 250 mm) at 25 °C and 214 nm with a flow rate of 1 mL/min. The sample injection volume was 20 µL. Chromatograms were recorded and analysed with the Agilent software ChemStation (G2175BA; B03.01). Mobile phases were acetonitrile (A) and water (B), each supplemented with 0.15% trifluoroacetic acid (TFA) (v/v). The samples were measured isocratically at 10% solvent A for 30 min.

[1] = as above; format: in vitro ADME; settings: simulated gastric fluid with pepsin (3.2 mg/mL); simulated gastric fluid: 2 mg/mL NaCl, 3.2 mg/mL pepsin, 80 mM HCl, pH 1.0; 37 °C, 500 rpm; after 8 h; RP-HPLC C18, 214 nm; read-out: Peptide amount remaining after pepsin incubation
Method: as §1, §2

Structure (SMILES): COC(=O)[C@@H](CCCCN)NC(=O)[C@@H](CCCCN)NC(=O)[C@@H](CS)NC(=O)[C@@H](CO)NC(=O)[C@@H](CCCCN)NC(=O)[C@@H](Cc1c[nH]c2ccccc12)NC(=O)[C@@H](CCCNC(=N)N)NC(=O)[C@@H](Cc1c[nH]c2ccccc12)NC(=O)[C@@H](CCCNC(=N)N)NC(=O)[C@@H](CS)NC(=O)[C@@H](CC(=O)O)NC(=O)[C@@H](CCSC)NC(=O)[C@@H](CCCCN)NC(C)=O [D-CDP7]
- Stability against pepsin hydrolysis (in words) (pepsin): stable against pepsin hydrolysis

Structure (SMILES): COC(=O)[C@H](CCCCN)NC(=O)[C@H](CCCCN)NC(=O)[C@H](CS)NC(=O)[C@H](CO)NC(=O)[C@H](CCCCN)NC(=O)[C@H](Cc1c[nH]c2ccccc12)NC(=O)[C@H](CCCNC(=N)N)NC(=O)[C@H](Cc1c[nH]c2ccccc12)NC(=O)[C@H](CCCNC(=N)N)NC(=O)[C@H](CS)NC(=O)[C@H](CC(=O)O)NC(=O)[C@H](CCSC)NC(=O)[C@H](CCCCN)NC(C)=O [L-CDP7]
- remaining at 8 h [1]: ~20%
